For assay [1], the target named is T1, KRAS(G12D)/SOS1 (Homo sapiens, UniProt P01116, G12D).
T1 construct: purchased Cisbio 63ADK000CB16PEG
Nature of the assay: KRAS(G12D)/SOS1 homogeneous time-resolved fluorescence (HTRF) assay. The class given is binding. On the procedure: The test compound was mixed and incubated with reaction components, incubated in a sealed plate at 4° C. for 3 hr and fluorescence was measured using a PerkinElmer Envision plate reader.
On the technique in general: Time-resolved FRET reads energy transfer from a long-lived donor to a nearby acceptor.

Chains of the proteins cited; added tags and fusions are not shown. Residues count along the entry.
UniProt P01116, 1-188 isoform P01116-2 G12D: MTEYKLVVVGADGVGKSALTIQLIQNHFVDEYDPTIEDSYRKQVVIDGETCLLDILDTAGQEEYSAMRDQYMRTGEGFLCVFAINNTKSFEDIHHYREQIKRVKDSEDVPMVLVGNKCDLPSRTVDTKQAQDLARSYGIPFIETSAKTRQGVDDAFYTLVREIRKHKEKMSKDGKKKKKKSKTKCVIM

The target in assay [2] is T2, KRAS(G12D) (Homo sapiens, UniProt P01116, G12D).
T2 construct: endogenous in cells; host or cells: SW1990
Nature of the assay: SW1990 WB assay (degradation DC50, Dmax). The settings on record: read-out: WB data SW1990 DC50; Western blot, SW1990 cells. The class given is cell-based. Background: A western blot detects proteins with antibodies after separation by electrophoresis.

The term IC50 denotes the midpoint of a concentration-inhibition curve. By DC50 is commonly meant the midpoint of the concentration-degradation curve. Consider `C#Cc1cccc2cc(O)cc(-c3ncc4c(N5CC6CCC(C5)N6)nc(OCC5(CN6CCN(CC7CCN(CC(=O)N[C@@H](C(=O)N8C[C@@H](O)C[C@@H]8C(=O)NCc8ccc(-c9scnc9C)cc8)C(C)(C)C)CC7)CC6)CC5)nc4c3F)c12` [Compound 82], for which, in assay [1], the IC50 was < 100 nM. Moreover, the DC50 in assay [2] is < 100 nM.

(Values after patent US20250018047A1, “METHODS AND COMPOSITIONS FOR TARGETED PROTEIN DEGRADATION” (Ranok Therapeutics (Hangzhou) Co. Ltd., priority 2021, published 2025).)
